Data on two molecules can be found in ChEMBL document CHEMBL1132952, “2D QSAR modeling and preliminary database searching for dopamine transporter inhibitors using genetic algorithm variable selection of Molconn Z descriptors” (J Med Chem, 2000).

Sequences of proteins named here, by UniProt entry; tags and fusion partners are left off.
UniProt P23977, whole entry: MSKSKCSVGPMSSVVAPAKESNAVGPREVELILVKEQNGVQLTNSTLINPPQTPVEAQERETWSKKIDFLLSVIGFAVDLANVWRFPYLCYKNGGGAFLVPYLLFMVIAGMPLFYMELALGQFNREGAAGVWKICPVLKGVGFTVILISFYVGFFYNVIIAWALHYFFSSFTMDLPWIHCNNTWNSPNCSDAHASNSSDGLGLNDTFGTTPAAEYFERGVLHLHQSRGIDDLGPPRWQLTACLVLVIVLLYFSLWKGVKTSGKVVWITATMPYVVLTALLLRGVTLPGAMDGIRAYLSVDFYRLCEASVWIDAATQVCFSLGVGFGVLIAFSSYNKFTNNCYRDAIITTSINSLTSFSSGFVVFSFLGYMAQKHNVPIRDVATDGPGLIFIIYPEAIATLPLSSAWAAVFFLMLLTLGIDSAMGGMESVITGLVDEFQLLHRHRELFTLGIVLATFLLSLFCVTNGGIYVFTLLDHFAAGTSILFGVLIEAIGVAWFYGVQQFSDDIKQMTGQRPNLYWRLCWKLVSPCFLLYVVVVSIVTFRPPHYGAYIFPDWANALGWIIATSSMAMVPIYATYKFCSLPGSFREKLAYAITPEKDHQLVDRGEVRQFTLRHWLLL

SMILES strings stand for the structures.

This experiment addresses Sodium-dependent dopamine transporter (Rattus norvegicus, UniProt P23977).

`CCN(CC)CCOC(=O)C1(c2ccccc2)CCCC1`: the Ki is 5.25 µM.

As to `CNC1CC(c2ccc(Cl)c(Cl)c2)c2ccccc21` (configuration not stated) [INDATRALINE], the affinity, expressed as Ki, was 0.00794 µM.
